Measurements from patent publication US20150031655A1, “COMBINATION OF LIVER X RECEPTOR MODULATOR AND ESTROGEN RECEPTOR MODULATOR FOR THE TREATMENT OF AGE-RELATED DISEASES” (UNIVERSITY OF NORTH DAKOTA, priority 2011, published 2015).

The chains behind the UniProt entries cited, without tags or fusion partners.
UniProt Q92731, whole entry: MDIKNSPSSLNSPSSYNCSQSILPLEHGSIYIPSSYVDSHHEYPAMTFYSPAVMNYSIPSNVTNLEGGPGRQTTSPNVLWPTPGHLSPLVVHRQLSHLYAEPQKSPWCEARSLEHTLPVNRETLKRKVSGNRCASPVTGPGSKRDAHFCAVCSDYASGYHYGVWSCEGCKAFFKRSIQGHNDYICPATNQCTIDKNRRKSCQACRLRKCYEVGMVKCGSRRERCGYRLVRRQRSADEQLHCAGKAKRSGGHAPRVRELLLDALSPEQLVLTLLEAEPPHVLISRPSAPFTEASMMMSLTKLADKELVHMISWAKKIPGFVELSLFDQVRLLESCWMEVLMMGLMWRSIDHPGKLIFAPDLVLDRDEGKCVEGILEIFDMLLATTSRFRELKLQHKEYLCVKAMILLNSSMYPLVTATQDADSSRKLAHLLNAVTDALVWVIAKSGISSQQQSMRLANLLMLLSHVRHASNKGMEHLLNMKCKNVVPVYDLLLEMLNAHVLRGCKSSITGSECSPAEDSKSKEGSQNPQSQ

Target: T1, ERβ (Homo sapiens, UniProt Q92731)
T1 construct: endogenous in cells; host or cells: SH-SY5Y human neuroblastoma cells
Assay: ChIP, ERβ binding to the ERE half site in the TH promoter
Type: cell-based
Settings: SH-SY5Y
Method: ChIP analysis was performed to evaluate the extent of ERα/ERβ and LXRα/LXRβ binding to the DNA elements in the TH promoter and α-synuclein promoter regions respectively using “SimpleChIP™ Enzymatic Chromatic IP kit” from Cell Signaling (Boston, Mass.).
Briefly, cells from each treatment group (3×10^6 cells) were washed with PBS, trypsinized, centrifuged at 5000 g. The pellet containing the cells was further washed with PBS and cross-linked using 37% formaldehyde for 15 min followed by the addition of glycine solution to cease the cross-linking reaction.
The cells were washed with 4× volumes of 1×PBS and centrifuged at ˜220 g for 5 min. […]
The crude DNA extract was eluted and then washed several times with wash buffer containing ethanol (provided with the kit) followed by purification with the use of DNA spin columns provided by the manufacturer. […] The DNA fragment size was determined by electrophoresis on a 1.2% agarose FlashGel^R system (Lonza, Rockland, Me.).
The relative abundance of the ERα or ERβ antibody precipitated chromatin containing the ERE in the TH promoter region and LXRα or LXRβ antibody precipitated chromatin containing the LXRE in the α-synuclein promoter region was determined by qPCR using an iQ SYBR Green Supermix kit following the manufacturer's instructions (BioRad, Hercules, Calif.) and sequence specific primers (See Table 1 above). […]

## C[C@]12CC[C@@H]3c4ccc(O)cc4CC[C@H]3[C@@H]1CC[C@@H]2O [estradiol, 17β-estradiol]
Concomitant to 27-OHC treatment
  ERβ binding to the ERE on the TH promoter: increases
Treatment alone vs control
  increase in ERβ binding to the ERE half-site on the TH promoter: 4.5 fold
